# scFv variants of Ab-14 (heavy chain) against a SARS-CoV-2 spike peptide

Values reported by Li et al. 2023, doi:10.1038/s41467-023-39022-2 (FLAb copy).

Antigen: PDVDLGDISGINAS, a 14-residue peptide of the SARS-CoV-2 spike HR2 region.

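The starting antibody came from a phage panning campaign against this peptide. Designed CDR sequences, proposed from the first random library and measured here. Several design methods are mixed in this list. In AlphaSeq, yeast of one mating type display the scFv and yeast of the other type display the target. Mating (16 h, 30 °C) was followed by selection of diploids and sequencing of their barcodes. A regression on co-assayed BCL2-family reference pairs converts the normalised counts of each replicate to an apparent Kd. The assay was run in six technical replicates.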

Ab-14 is the parent antibody, in scFv form: VH, then a (GGGGS)3 linker, then VL. The light chain is unchanged in all variants.
VH: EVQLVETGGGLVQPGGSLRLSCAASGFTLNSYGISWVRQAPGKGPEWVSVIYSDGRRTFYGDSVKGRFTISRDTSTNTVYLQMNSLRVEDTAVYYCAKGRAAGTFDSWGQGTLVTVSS
VL: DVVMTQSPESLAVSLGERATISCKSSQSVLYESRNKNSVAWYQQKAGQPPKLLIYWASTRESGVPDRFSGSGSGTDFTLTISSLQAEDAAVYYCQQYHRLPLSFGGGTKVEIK

Each variant is given by its three heavy chain CDRs, as the data file delimits them; those of the parent are GFTLNSYGIS, VIYSDGRRTFYGDSVK, GRAAGTFDS.
The Kd shown is the geometric mean over detected replicates; a lower Kd is a better binder.
"not detected" means that the variant was in the library but no mating with the target was seen in any replicate; the authors take this as a sign of poor binding, and no number exists.
Of ten entries with the parent sequence, four were seen in most replicates (averages 2.2 nM to 240 nM), three in one and three in none, so single entries are noisy.
A sequence measured in both rounds can read differently, since the two assays cover different ranges.
As a blank, each scFv also met three strains without target: over all heavy chain designs, 1% of these pairings were detected, typically at 120 nM and seldom below 7.0 nM. The control count says in how many pairings with the empty strains this scFv gave a signal.
Where one sequence has several entries in the source, the replicates are pooled.
The authors averaged sequences with at least three values out of six and counted those with two or fewer as poor binders.

apparent Kd	replicates with signal	signal with controls	CDR-H1	CDR-H2	CDR-H3
31 nM	1/6	0/18	GFTMNSYGIS	VIYSDGRRTFYGDSVK	GRNAGTFDE
220 pM	6/6	0/18	GFDLDEYGIS	VIYADGVRTFYADSVK	GENAGTFDV
9.5 nM	4/6	0/18	GFELNSYGIS	VIYSDGRRTFYVDSVK	GRNAGTFDT
220 pM	6/6	0/18	GFDLNEYGIS	VIYADGVRTAYADSVK	GHNAGTFDV
29 nM	1/6	0/18	GFDLNSYGIS	VIYSDGRRTFYGDRVK	GQIAGTFDS
not detected	0/6	0/18	GFTNNDYGIS	VIYSDGRRTFYGDSVK	SRAAGTFDS
19 nM	11/12	0/36	GFTLNSYGIS	VIYADGRRTFYGDSVK	GRAAGTFES
33 nM	6/6	0/18	GKTLDEYGIS	VIYADGMRTQYIDQVK	GDIVNTNMT
200 nM	1/6	0/18	GFSLNSYGIS	VIYSDGRRTFYVDSTK	GRQAGTFDS
460 pM	6/6	0/18	GFDLNEYGIS	VIYADGRRTAYVDSVK	GQLAGTFDT
260 pM	6/6	0/18	GFDLNSYGIS	VIYSDGRRTFYGDRVK	GRNAGTFDS
390 pM	6/6	0/18	GFSLNEYGIS	VIYSDGRRTFYIDSVK	GNAAGTFDS
not detected	0/6	0/18	GFTLNMYGIS	VIYSDIERTHYGDSVK	GRAAGTFDS
18 nM	2/6	1/18	EFDLNSYGIS	VIYSDGRRTFYSDSVK	GEAGGTFDS
2.5 nM	6/6	1/18	GFGLNSYGIS	VIYSDGRRTFYADSVK	GKAAGTFDV
19 nM	4/6	0/18	GFTLNDYGIS	VIYSDGWRTMYIDSVK	GRAAGTFDS
550 pM	6/6	0/18	GFDLNEYGIS	VIYADGVRTFYADSVK	GSNAGTFDV
6.5 nM	4/6	0/18	GFNLNSYGIS	VIYSDGRRTFYGDHVK	GRTAGTFDS
not detected	0/6	0/18	GEQLDEYGIS	VIYADGRRTAYSQSVK	GLNGGIIDV
53 pM	6/6	1/18	GFDLDEYGIS	VIYADGQRTAYADDVK	GNVAGTFDQ
8.8 nM	2/6	0/18	GFKLNSYGIS	VIYSDGRRTFYADSVK	GKNAGTFDS
not detected	0/6	0/18	GFELNSYGIS	VIYSDGRRTFYGDSVK	GRAAGHFNS
120 nM	2/6	0/18	GFTLNSYGIS	VIYSDGRRTFYKDFVK	GRAAGTFCS
260 pM	6/6	0/18	GFDLDEYGIS	VIYADGVRTAYADSVK	GEVAGTFDI
6.6 nM	5/6	0/18	GFTLNEYGIS	VIYSDGRRTFYGDSVK	GRIAGTFDL
not detected	0/6	0/18	GFSLNNYGIS	VIYSDGRRTFYGDSVK	GKAAGTGPS
not detected	0/6	0/18	GTILNSYGIS	VIYSDGRRTAYIDSVK	GRAAGTFDS
240 pM	6/6	0/18	GFDLNEYGIS	VIYADGMRTVYADSVK	GQNAGTFDV
not detected	0/6	1/18	GFDIEEYGIS	VIYADGVRAMYKSNFK	GKIAGTYLT
3.0 nM	6/6	0/18	GFDLDEYGIS	VIYADGMRTAYADDVK	GEVAGTFDI
not detected	0/6	0/18	GFYLNSYGIS	VIYSDGRRTFYIDSVK	GQLAGTFDS
3.5 nM	6/6	0/18	GFTLNSYGIS	VIYSDGRRTFYADDVK	GKAAGTFDS
46 nM	6/6	0/18	GFTLNSYGIS	VIYADGRRTFYGDDVK	GQAAGTFKS
not detected	0/6	0/18	RFTLNSYGIS	VIYSDGRRTFYIDSVK	GKIAGTFDS
310 pM	6/6	0/18	GFELNSYGIS	VIYSDGRRTFYQDSVK	GRNAGTFDS
1.2 nM	6/6	0/18	GFNLNSYGIS	VIYSDGRRTFYGDSVK	GAEAGTFDS
6.0 nM	1/6	0/18	GFNLNSYGIS	VIYSDGRRTFYGDQVK	GKIAGTFDS
250 pM	6/6	0/18	GFDLNEYGIS	VIYADGKRTAYVDNVK	GNVAGTFDV
3.3 nM	6/6	0/18	GFDLNEYGIS	VIYADGRRTFYADNVK	GEVAGTFIS
43 nM	5/6	0/18	GNTLNSYGIS	VIYSDGRRTAYGDSVK	GRAALTFDS
1.5 nM	5/6	0/18	GFTLNNYGIS	VIYSDGRRTFYGDSVK	GREAGTFDS
14 nM	5/6	0/18	GFWLNMYGIS	VIYSDGRRTFYGDSVK	GREAGTFDT
1.1 nM	6/6	1/18	GFTLNSYGIS	VIYSDGRRTFYDPSVK	GRAAGTFFS
2.2 nM	6/6	0/18	GFDLNSYGIS	VIYSDGRRTFYSDSVK	GTAAGTFDS
3.2 nM	3/6	0/18	GFEIDEYGIS	VIYADGLRYHYANSVK	GEMAGTFTE
530 pM	6/6	0/18	GFDLDEYGIS	VIYADGMRTAYADTVK	GNNAGTFDV

3 of these entries, quoted again:

CDR-H1,CDR-H2,CDR-H3,apparent Kd,replicates with signal,signal with controls
GFDLNSYGIS,VIYSDGRRTFYGDRVK,GQIAGTFDS,29 nM,1/6,0/18
GFYLNSYGIS,VIYSDGRRTFYIDSVK,GQLAGTFDS,not detected,0/6,0/18
GFDLDEYGIS,VIYADGMRTAYADDVK,GEVAGTFDI,3.0 nM,6/6,0/18